Sequences of proteins named here, by UniProt entry; tags and fusion partners are left off.
ATP-dependent Clp protease proteolytic subunit (Bacillus subtilis (strain 168)), P80244, UniProt P80244, whole entry, looked up: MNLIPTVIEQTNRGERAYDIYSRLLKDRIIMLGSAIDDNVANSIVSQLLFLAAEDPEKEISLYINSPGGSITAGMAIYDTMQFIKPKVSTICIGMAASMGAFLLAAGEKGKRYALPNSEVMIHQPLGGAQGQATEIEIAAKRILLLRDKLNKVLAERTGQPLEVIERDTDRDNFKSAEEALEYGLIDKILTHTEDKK

# ClpP mod: qHTS Assay for Activators of ClpP; AID 651965, 2013; purified B. subtilis ClpP, FRET peptide cleavage, 20 min; ATP-dependent Clp protease proteolytic subunit (Bacillus subtilis (strain 168)), P80244; 1.9% of 340,000 active; Potency, µM (highest dose often 57.5 µM), for inactives: at the highest dose activity change, negative = active; active = well fitted falling curve with a large enough effect; inconclusive = small, poorly fitted or top-dose-only effect; inactive = no such curve, though single readings can be large or run the other way; also: potency is read from the fitted curve at half-maximal effect; the source files actives as falling curves though it sought activators and does not explain the sign; nearly all actives have a fitted effect of over 65% in size
#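 Buffer: 100 mM Tris/HCl pH8, 100 mM KCl, 0.05% low protease BSA, 2.5% glycerol, 0.01% Tween-20. ClpP 10 microg/mL final; 20 min RT; delta FRET normalized to ADEP and DMSO controls.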
# Apoferritin bind: candidate novel general anesthetic via apoferritin binding; P02791; apoferritin/1-aminoanthracene competitive binding, fluorescence; Potency, µM (top dose mostly 77.5 µM), for inactives: at the highest dose activity change, negative = displacement, actives largely listed as inhibitors; 0.074% of 350,000 active; also: potency is read from the fitted curve at half-maximal effect; % is scaled to controls: 0 for no effect and ±100 for the full control effect; nearly all actives have a fitted effect of over 20% in size
#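 Steps: apoferritin (10 uM) was premixed with half-saturated 1-AMA in PBS, compounds were pin-transferred, plates stood 10 min at room temperature, fluorescence was read at 380/535 nm, and curves were fitted with a Hill equation.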
# TrxR1 substrate: rat thioredoxin reductase 1 substrate activity; purified TrxR1 substrate turnover, NADPH consumption readout; Potency, µM (series often up to 114 µM), without a hit: at the top dose activity change, negative = substrate turnover; 0.01% of 390,000 active; AID 588456; also: potency is read from the fitted curve at half-maximal effect; % is scaled to controls: 0 for no effect and ±100 for the full control effect; nearly all actives have a fitted effect of over 50% in size
#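 Rat TrxR1, dispensed at 90 nM, was prereduced with 400 uM NADPH (final) for 5 min at ~22 deg C, then incubated with compound 15 min before 400 uM selenite. A first-read NADPH fluorescence drop versus no-compound background flagged substrates.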
# TrxR1 inh: inhibitors of rat thioredoxin reductase 1; 1% of 390,000 active; AID 588453; Potency, µM (titrated, usually from 114 µM), for the others: at the highest dose activity change, negative = inhibition, actives largely listed as inhibitors; recombinant rTrxR1, NADPH fluorescence consumption, selenite substrate; also: potency is read from the fitted curve at half-maximal effect; % is scaled to controls: 0 for no effect and ±100 for the full control effect; nearly all actives have a fitted effect of over 65% in size
#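 Rat TrxR1 (90 nM in the dispensed reagent) was pre-reduced with 400 uM NADPH for 5 min at room temperature, then incubated with compound for 15 min. After 400 uM selenite was added, NADPH fluorescence (Ex 340/Em 450 nm) was followed for 8 min.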
# miR-21 reporter: miR-21 reporter, rising signal | HeLa miR-21 FLuc reporter, luciferase, 48 h | Potency, µM (top dose mostly 38.3 µM), inactives show at the top dose reporter change, positive = more light | 340,000 tested, under 10 active | AID 2288; active = well fitted rising curve with a large enough effect; inconclusive = small, poorly fitted or top-dose-only effect; inactive = no such curve, though single readings can be large or run the other way;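 further: % of control where 0% means no effect; miR-21 action dims this reporter so a rising signal means less miR-21 action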
#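 Using DMEM plus 10% FBS, HeLa miR-21-FLuc cells are incubated with test compounds (final up to about 40uM) for 48 hours; firefly luciferase signal is then imaged following reagent-mediated lysis.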
# An asterisk follows results filed as active; ? = inconclusive; / = no result; [ ] = remark or other dose. Sampled rows, rich in hits. Any-hit rate of the full collection: about 2.5%. Unless noted, calls follow the shape of the dose curve; as a rule, active = well fitted curve in the direction sought with a large enough effect; inconclusive = small, poorly fitted or top-dose-only effect, or another doubt; inactive = no such curve, though single readings can be large; an effect the other way counts as inactive or inconclusive.
# Screens by letter: A = ClpP mod; B = Apoferritin bind; C = TrxR1 substrate; D = TrxR1 inh; E = miR-21 reporter
(1) CC(=O)N/C(=C/c1ccc2c(c1)OCO2)C(=O)NC(Cc1ccccc1)C(=O)O (configuration not stated)
  A = 32µM*; B = /; C = -5%[57.1 µM]; D = -23%[57.1 µM]; E = /

(2) CC(=O)N/C(=C\c1ccc2c(c1)OCO2)C(=O)NC(C(=O)O)c1ccccc1 (configuration not stated)
  A = /; B = -6%; C = -10%; D = -18%; E = -1%

(3) CC1(C)Cc2c(cnn2-c2ccccc2)C(=O)/C1=N\NC(=O)c1ccccc1N
  A = 1%; B = -17%; C = -7%; D = 19%; E = -9%

(4) CC1(C)Cc2c(cnn2-c2ccccc2)-c2c1c1ccccc1n2CC(O)CBr (configuration not stated)
  A = 14µM*; B = 5%; C = 46%[57.1 µM]; D = 16%[57.1 µM]; E = 1%

(5) COc1ccc(-c2n[nH]c(C(F)(F)F)c2-c2cc3ccccc3o2)c(O)c1
  A = 25µM*; B = ?; C = 22%; D = 14%; E = ?

(6) COc1ccccc1-c1c(-c2ccc(OCC(=O)NN)cc2O)n[nH]c1C(F)(F)F
  A = -5%; B = -14%; C = 4%; D = 4%; E = 6%

(7) CCCNC(=S)N1CCN(C)CC1
  A = 7.1µM*; B = -1%; C = -14%; D = -16%; E = -10%

(8) Cc1ccc(CSc2nnc(-c3ccc4c(c3)OCO4)o2)cc1
  A = 35%; B = -17%; C = -11%[57.1 µM]; D = -13%[57.1 µM]; E = 2%

(9) Cc1ccc(CSc2ccc(-c3ccc4c(c3)OCO4)nn2)cc1
  A = 28µM*; B = -2%; C = 5%; D = 0%; E = -20%

(10) CCCc1c(CC)c(=N)c2ccccc2n1C
  A = 28µM*; B = -2%; C = 21%; D = -6%; E = 15%

(11) CC(C)(C)c1ccc(CSc2nnc(-c3ccccc3NC(=O)c3ccccc3)o2)cc1
  A = 28µM*; B = -2%; C = 10%; D = 2%; E = 2%

(12) O=C(Nc1ccccc1-c1nnc(SCc2ccc(Cl)cc2Cl)o1)c1ccccc1
  A = ?; B = -6%; C = 5%; D = -1%; E = -8%

(13) O=C(Nc1ccccc1-c1nnc(SCc2ccccc2Cl)o1)c1ccccc1
  A = 20µM*; B = -13%; C = 22%; D = 26%; E = -2%

(14) O=C(Cn1cc(S(=O)(=O)Cc2ccc(F)cc2)c2ccccc21)NCCc1ccccc1
  A = 0%; B = -3%; C = -7%; D = 5%; E = 4%

(15) COC1=CC(=O)C(OC)=C(OC)C1=O
  A = -1%; B = /; C = -9%; D = 50µM*; E = /

(16) COC1=C(OC)C(=O)c2ccccc2C1=O
  A = 49%; B = /; C = 24%[57.1 µM]; D = 12%[57.1 µM]; E = /

(17) CC(C)(C)n1ncc2c(=O)n(Cc3cccc(Oc4ccccc4)c3)cnc21
  A = /; B = /; C = -4%; D = 2%; E = /

(18) COc1ccc(CCNC(=O)COC(=O)CCC(=O)c2cccs2)cc1OC
  A = /; B = /; C = -2%; D = ?; E = /

(19) COc1ccc(CCNC(=O)COC(=O)CCC(=O)c2ccc(F)cc2)cc1OC
  A = 32µM*; B = -3%; C = -15%[57.1 µM]; D = 11%[57.1 µM]; E = 1%

(20) O=C(NCc1ccccc1)N1CCn2c(nc3ccccc32)C1
  A = 32µM*; B = 13%; C = 4%; D = -28%; E = -16%

(21) CC(C)(C)c1ccc(OCC(=O)N/N=C/c2ccc(N3CCOCC3)cc2)cc1
  A = 35µM*; B = -8%; C = 9%; D = -3%; E = -2%

(22) CCOC(=O)c1ccc(NC(=O)/C=C/c2cccs2)cc1
  A = /; B = ?; C = 79µM*; D = -35%; E = -20%

(23) COC(=O)c1sccc1-c1ccc(/C=N/OCc2c(Cl)cccc2Cl)o1
  A = 5µM*; B = 1%; C = 17%; D = -22%; E = 0%

(24) O=C(Nc1ccc2c(c1)C(=O)NC2=O)c1cccc(Cl)c1
  A = -10%; B = -7%; C = 10%; D = 6%; E = -5%

(25) COc1cc(NC(=O)c2ccc(Cl)cc2Cl)ccc1-c1cc2ccccc2oc1=O
  A = -6%; B = -3%; C = 28%; D = 12%; E = -1%

(26) O=C(Nc1ccc2c(c1)C(=O)NC2=O)c1cc(Cl)ccc1Cl
  A = 32µM*; B = -6%; C = 14%; D = 20%; E = -1%

(27) Cc1cc(NC(=O)c2cc(Cl)ccc2Cl)ccc1-c1cc2ccccc2oc1=O
  A = 11µM*; B = 33%; C = 23%; D = 79%; E = 3%

(28) O=C1NC(=O)c2cc(NC(=O)C3CCCCC3)ccc21
  A = 25µM*; B = 16%; C = 61%; D = 20%; E = -6%

(29) Cc1nc(-c2ccc(C)c(N3CCN(C(=O)Nc4cccc(Cl)c4C)CC3)c2)no1
  A = -1%; B = -2%; C = 5%[57.1 µM]; D = 15%[57.1 µM]; E = 14%

(30) Cc1cc(NC(=O)NCc2ccccc2)c(=O)n(Cc2ccc(F)cc2)c1
  A = /; B = ?; C = 7%; D = 1%; E = -13%

(31) O=C(NCc1ccccc1)Nc1cccn(Cc2ccccc2F)c1=O
  A = 20µM*; B = -15%; C = 9%; D = -8%; E = -34%

(32) CCOc1ccc(NC(=O)Nc2cccn(Cc3ccccc3)c2=O)cc1
  A = 28µM*; B = -14%; C = -2%[57.1 µM]; D = 2%[57.1 µM]; E = 1%

(33) O=C(NCc1ccccc1)Nc1cccn(Cc2ccc(F)cc2)c1=O
  A = 32µM*; B = ?; C = 8%; D = 2%; E = 19%

(34) O=C(NCc1ccccc1)Nc1cccn(Cc2ccccc2)c1=O
  A = 25µM*; B = ?; C = 16%; D = 8%; E = -26%

(35) O=C(C[n+]1ccccc1Br)c1ccc(I)cc1
  A = -1%; B = /; C = -3%; D = ?; E = /

(36) COc1ccc(OC)c(-c2nc3c(C#N)c[nH]n3c2NC2CCCCC2)c1
  A = -12%; B = -2%; C = -10%; D = -4%; E = ?

(37) Cc1ccc(CNC(=O)CN(c2cc(C)cc(C)c2)S(=O)(=O)c2c(C)noc2C)cc1
  A = 2%; B = -17%; C = -2%; D = 10%; E = -4%

(38) O=C(NCc1ccccc1)Nc1cccn(Cc2cccc(F)c2)c1=O
  A = 35µM*; B = ?; C = 9%; D = 2%; E = -23%

(39) Cc1ccc(-c2csc(NC(=O)C3CC(=O)N(c4ccc5c(c4)OCCO5)C3)n2)o1 (configuration not stated)
  A = 0%; B = /; C = -3%; D = ?; E = /

(40) Cc1ccc(-n2c(=O)[nH]c3c(C(N)=O)nc(CC(C)C)nc32)cc1
  A = 28µM*; B = -1%; C = 9%[57.1 µM]; D = 14%[57.1 µM]; E = -16%

(41) COc1ccccc1-n1c(=O)[nH]c2c(C(N)=O)nc(CC(C)C)nc21
  A = 5%; B = -12%; C = 8%; D = 11%; E = -19%

(42) Cc1nc2nc(SCC(N)=O)[nH]c2cc1Br
  A = 16µM*; B = -22%; C = 13%[57.1 µM]; D = 1%[57.1 µM]; E = -6%

(43) Cc1cccc(-c2nnc(SCCOc3ccc4c(C)cc(=O)oc4c3)o2)c1
  A = 10µM*; B = -21%; C = 47%; D = 14%; E = 0%

(44) Cc1cc(=O)oc2cc(OCC(=O)N3CCc4ccccc4C3)ccc12
  A = 25µM*; B = ?; C = 26%; D = -6%; E = -5%

(45) O=c1ccc2ccc(OCc3nnc(-c4ccccc4Br)o3)cc2o1
  A = ?; B = ?; C = 18%; D = 11%; E = -47%

# Arranged by length of the SMILES (high to low): some entries from above.
# Screens by letter: A = ClpP mod; B = Apoferritin bind; C = TrxR1 substrate; D = TrxR1 inh; E = miR-21 reporter
(37) Cc1ccc(CNC(=O)CN(c2cc(C)cc(C)c2)S(=O)(=O)c2c(C)noc2C)cc1
  A = 2%; B = -17%; C = -2%; D = 10%; E = -4%

(32) CCOc1ccc(NC(=O)Nc2cccn(Cc3ccccc3)c2=O)cc1
  A = 28µM*; B = -14%; C = -2%[57.1 µM]; D = 2%[57.1 µM]; E = 1%

(45) O=c1ccc2ccc(OCc3nnc(-c4ccccc4Br)o3)cc2o1
  A = ?; B = ?; C = 18%; D = 11%; E = -47%

# Following part:
# Screens by letter: A = ClpP mod; B = Apoferritin bind; C = TrxR1 substrate; D = TrxR1 inh; E = miR-21 reporter
(46) Cc1cc(=O)oc2cc(OCC(=O)NCc3ccccn3)ccc12
  A = 25µM*; B = -3%; C = 35%; D = -15%; E = 0%

(47) Cc1cc(=O)oc2cc(OCC(=O)N3CCCc4ccccc43)ccc12
  A = ?; B = -18%; C = 5%; D = 0%; E = -6%

(48) Cc1cc(=O)oc2cc(OCc3nnc(-c4ccccc4Br)o3)ccc12
  A = 28µM*; B = -24%; C = 54%; D = 7%; E = -15%

(49) COc1ccc(-c2nnc(SCC(=O)Nc3cccc(C(F)(F)F)c3)s2)cc1
  A = -7%; B = -20%; C = 4%[57.1 µM]; D = -3%[57.1 µM]; E = -43%

(50) Cc1ccc(C(=O)c2oc3ccccc3c2NC(=O)Cc2coc3cc(C)ccc23)cc1
  A = -13%; B = -13%; C = 15%; D = 35%; E = -4%

# Some of these compounds in order of the TrxR1 inh value, low to high:
cpd | mol | TrxR1 inh
46 | Cc1cc(=O)oc2cc(OCC(=O)NCc3ccccn3)ccc12 | -15%
47 | Cc1cc(=O)oc2cc(OCC(=O)N3CCCc4ccccc43)ccc12 | 0%
48 | Cc1cc(=O)oc2cc(OCc3nnc(-c4ccccc4Br)o3)ccc12 | 7%
50 | Cc1ccc(C(=O)c2oc3ccccc3c2NC(=O)Cc2coc3cc(C)ccc23)cc1 | 35%

# High-throughput results: PubChem BioAssay, National Center for Advancing Translational Sciences (NCATS)
